Measurements reported in article PMC12155096 (International Journal of Molecular Sciences, 2025).
Read-outs that look alike come from different tables or passages of the source.

By UniProt entry, the sequences of proteins in these tests, tags left out.
UniProt P08659, whole entry, looked up: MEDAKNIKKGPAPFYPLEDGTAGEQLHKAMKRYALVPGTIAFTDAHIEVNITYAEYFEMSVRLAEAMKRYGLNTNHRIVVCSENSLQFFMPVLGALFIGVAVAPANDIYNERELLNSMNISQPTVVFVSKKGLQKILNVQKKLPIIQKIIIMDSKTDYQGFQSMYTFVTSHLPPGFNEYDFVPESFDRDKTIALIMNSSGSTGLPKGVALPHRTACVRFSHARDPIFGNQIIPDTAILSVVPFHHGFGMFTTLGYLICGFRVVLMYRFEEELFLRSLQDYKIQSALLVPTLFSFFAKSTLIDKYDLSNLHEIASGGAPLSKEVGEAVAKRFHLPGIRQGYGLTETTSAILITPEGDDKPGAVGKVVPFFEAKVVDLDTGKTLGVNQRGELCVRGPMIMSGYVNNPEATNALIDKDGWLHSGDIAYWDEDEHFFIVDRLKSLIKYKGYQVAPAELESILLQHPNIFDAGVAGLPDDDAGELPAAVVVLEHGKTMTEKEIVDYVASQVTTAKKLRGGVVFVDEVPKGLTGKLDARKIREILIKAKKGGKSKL
UniProt P11712, whole entry, looked up: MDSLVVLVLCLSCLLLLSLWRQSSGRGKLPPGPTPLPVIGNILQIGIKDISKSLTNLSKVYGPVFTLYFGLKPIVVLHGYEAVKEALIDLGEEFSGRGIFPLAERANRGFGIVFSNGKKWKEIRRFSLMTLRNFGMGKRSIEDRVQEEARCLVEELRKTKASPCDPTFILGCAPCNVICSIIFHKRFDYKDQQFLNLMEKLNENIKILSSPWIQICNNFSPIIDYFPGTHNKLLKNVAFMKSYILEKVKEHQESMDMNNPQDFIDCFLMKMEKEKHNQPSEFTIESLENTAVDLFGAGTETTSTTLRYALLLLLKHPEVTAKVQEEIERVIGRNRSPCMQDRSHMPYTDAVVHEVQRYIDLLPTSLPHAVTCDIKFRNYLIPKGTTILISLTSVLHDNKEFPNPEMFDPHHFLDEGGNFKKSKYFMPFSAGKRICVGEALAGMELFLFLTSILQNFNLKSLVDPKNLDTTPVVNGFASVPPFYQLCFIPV
UniProt P33261, whole entry, looked up: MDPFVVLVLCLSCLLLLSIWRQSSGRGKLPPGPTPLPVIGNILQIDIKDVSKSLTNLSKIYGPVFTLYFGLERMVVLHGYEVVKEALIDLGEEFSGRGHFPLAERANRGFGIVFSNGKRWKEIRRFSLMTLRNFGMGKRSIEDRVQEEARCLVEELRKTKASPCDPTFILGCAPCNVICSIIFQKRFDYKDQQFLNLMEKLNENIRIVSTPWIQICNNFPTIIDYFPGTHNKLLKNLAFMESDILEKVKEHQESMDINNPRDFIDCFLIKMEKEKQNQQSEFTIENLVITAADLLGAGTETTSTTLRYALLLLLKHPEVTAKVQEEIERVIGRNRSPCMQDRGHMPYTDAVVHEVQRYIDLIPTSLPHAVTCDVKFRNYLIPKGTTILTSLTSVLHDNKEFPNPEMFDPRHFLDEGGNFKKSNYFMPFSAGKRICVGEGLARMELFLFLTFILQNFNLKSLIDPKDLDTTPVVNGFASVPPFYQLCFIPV
UniProt P05177, whole entry, looked up: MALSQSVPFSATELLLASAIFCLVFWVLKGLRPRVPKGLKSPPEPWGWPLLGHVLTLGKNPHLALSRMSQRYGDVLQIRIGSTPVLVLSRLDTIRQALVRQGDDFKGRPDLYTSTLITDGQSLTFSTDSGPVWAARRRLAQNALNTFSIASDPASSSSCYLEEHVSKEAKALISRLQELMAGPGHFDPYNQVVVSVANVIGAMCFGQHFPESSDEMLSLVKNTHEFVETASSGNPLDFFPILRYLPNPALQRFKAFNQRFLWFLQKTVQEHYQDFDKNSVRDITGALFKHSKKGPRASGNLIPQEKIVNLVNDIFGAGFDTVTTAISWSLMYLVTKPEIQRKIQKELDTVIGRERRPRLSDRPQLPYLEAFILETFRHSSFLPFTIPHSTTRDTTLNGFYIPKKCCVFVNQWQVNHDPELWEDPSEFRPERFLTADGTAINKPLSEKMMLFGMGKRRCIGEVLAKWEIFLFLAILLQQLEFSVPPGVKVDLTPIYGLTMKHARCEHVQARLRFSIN
UniProt P10635, whole entry, looked up: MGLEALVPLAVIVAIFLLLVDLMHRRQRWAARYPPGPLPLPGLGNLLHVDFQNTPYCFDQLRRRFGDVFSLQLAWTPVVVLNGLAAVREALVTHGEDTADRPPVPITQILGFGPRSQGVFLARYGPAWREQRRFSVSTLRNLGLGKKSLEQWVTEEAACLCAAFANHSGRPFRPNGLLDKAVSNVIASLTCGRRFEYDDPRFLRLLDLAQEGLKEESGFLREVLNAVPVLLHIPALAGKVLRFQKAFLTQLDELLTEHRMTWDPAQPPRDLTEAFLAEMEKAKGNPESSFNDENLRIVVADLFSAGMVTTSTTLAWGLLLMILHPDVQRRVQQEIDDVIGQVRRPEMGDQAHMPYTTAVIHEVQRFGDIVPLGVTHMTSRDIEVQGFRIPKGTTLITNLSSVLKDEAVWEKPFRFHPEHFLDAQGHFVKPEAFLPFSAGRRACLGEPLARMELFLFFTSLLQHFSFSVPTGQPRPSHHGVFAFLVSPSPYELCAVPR
UniProt P08684, whole entry, looked up: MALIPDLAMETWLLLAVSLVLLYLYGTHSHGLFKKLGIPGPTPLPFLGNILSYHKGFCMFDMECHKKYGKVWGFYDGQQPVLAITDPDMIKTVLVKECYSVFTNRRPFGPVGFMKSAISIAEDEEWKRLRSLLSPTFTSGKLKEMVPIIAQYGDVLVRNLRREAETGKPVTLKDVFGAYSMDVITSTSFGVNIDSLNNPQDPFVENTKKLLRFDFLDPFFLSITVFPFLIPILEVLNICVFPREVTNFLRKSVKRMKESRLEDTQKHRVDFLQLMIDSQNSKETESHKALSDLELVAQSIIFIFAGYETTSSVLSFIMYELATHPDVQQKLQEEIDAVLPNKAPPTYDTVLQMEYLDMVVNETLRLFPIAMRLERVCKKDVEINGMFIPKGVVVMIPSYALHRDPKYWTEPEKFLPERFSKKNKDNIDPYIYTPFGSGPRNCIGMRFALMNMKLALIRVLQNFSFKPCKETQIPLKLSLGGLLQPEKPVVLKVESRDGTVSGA

Experiments:
[1] = biological target: Photinus pyralis (firefly) luciferase (Photinus pyralis, UniProt P08659); experiment: Luciferase counter-screen assay; format: biochemical; conditions: mean ± standard deviation from three experiments
[2] = biological target: human CYP2C9 (Homo sapiens, UniProt P11712); conditions: mean ± standard deviation from three experiments; for CYP2C9 Efficacy (in parenthesis): negative = inhibition; for IC50: read-out: CYP2C9 IC50 (half-maximal inhibitory concentration); for AC50: read-out: CYP2C9 AC50 (half-maximal activity concentration), activity call in words where no AC50
[3] = biological target: human CYP2C19 (Homo sapiens, UniProt P33261); conditions: mean ± standard deviation from three experiments; for CYP2C19 Efficacy (in parenthesis): negative = inhibition; for IC50: read-out: CYP2C19 IC50 (half-maximal inhibitory concentration)
[4] = biological target: human CYP1A2 (Homo sapiens, UniProt P05177); conditions: mean ± standard deviation from three experiments; for CYP1A2 Efficacy (in parenthesis): negative = inhibition; for IC50: read-out: CYP1A2 IC50 (half-maximal inhibitory concentration)
[5] = biological target: human CYP2D6 (Homo sapiens, UniProt P10635); conditions: mean ± standard deviation from three experiments; for CYP2D6 Efficacy (in parenthesis): negative = inhibition; for IC50: read-out: CYP2D6 IC50 (half-maximal inhibitory concentration), qHTS
[6] = biological target: CYP3A4 (Homo sapiens, UniProt P08684); conditions: mean ± standard deviation from three experiments; for CYP3A4 Efficacy (in parenthesis): negative = inhibition, positive = activation; for IC50: read-out: CYP3A4 IC50 (half-maximal inhibitory concentration), qHTS, positive efficacy = activation; for AC50: read-out: CYP3A4 AC50 (half-maximal activity concentration)
[7] = activity call in words where no AC50

| SMILES | Luciferase IC50 (half-maximal inhibitory concentration) [1] | CYP2C9 Efficacy (in parenthesis) [2] | IC50 ([2]; qHTS) | CYP2C19 Efficacy (in parenthesis) [3] | IC50 ([3]; qHTS) | CYP1A2 Efficacy (in parenthesis) [4] | IC50 ([4]; qHTS) | CYP2D6 Efficacy (in parenthesis) [5] | IC50 [5] | CYP3A4 Efficacy (in parenthesis) [6] | IC50 [6] | AC50 [2] | CYP2D6 AC50 (half-maximal activity concentration) [5, 7] | AC50 [6, 7] | also measured |
| --- | --- | --- | --- | --- | --- | --- | --- | --- | --- | --- | --- | --- | --- | --- | --- |
| CC(C)OP(=S)(OC(C)C)SCCNS(=O)(=O)c1ccccc1 | Inactive | -97 ± 2% | 1.62 µM | -143 ± 6% | 0.16 µM | -99 ± 4% | 12.6 µM | -88 ± 5% | 35.7 µM | -89 ± 1% | 0.6 µM |  |  |  |  |
| Cc1cccc([N+](=O)[O-])c1[N+](=O)[O-] |  |  |  |  |  |  |  |  |  |  |  |  |  |  | CYP2C9 AC50 (half-maximal activity concentration) ([2]; words = activity call): Inactive; CYP2C19 AC50 (half-maximal activity concentration) ([3]; words = activity call): Inconclusive inhibitor; CYP2D6 AC50 (half-maximal activity concentration) ([5]; words = activity call): Inconclusive inhibitor; AC50 ([6]; words = activity call): 6.52 µM |
| CN(C(=O)Cc1cccc2occc12)[C@H]1CC[C@@]2(CCCO2)C[C@@H]1N1CCCC1 | Inactive | -77 ± 8% | 34.2 µM | -104 ± 16% | 57.9 µM | -44 ± 13% | 49.1 µM | -78 ± 2% | 0.18 µM | -67 ± 7% | 20 µM |  |  |  |  |
| Cc1cc([N+](=O)[O-])cc([N+](=O)[O-])c1O |  |  |  |  |  |  |  |  |  |  |  | 21.7 µM | Inconclusive inhibitor | 29.4 µM | AC50 ([3]; read-out: CYP2C19 AC50 (half-maximal activity concentration), activity call in words where no AC50): 63.7 µM; AC50 ([4]; read-out: CYP1A2 AC50 (half-maximal activity concentration), activity call in words where no AC50): 56.6 µM |
| CN(C(=O)Cc1ccc(Cl)c(Cl)c1)C1CCC2(CCCO2)CC1N1CCCC1 (stereo not shown) | Inactive |  |  |  |  |  |  | -102 ± 7% | 4.21 µM | -77 ± 1% |  |  |  |  | CYP2C9 IC50 (half-maximal inhibitory concentration) ([2]; qHTS): Inactive; CYP2C19 IC50 (half-maximal inhibitory concentration) ([3]; qHTS): Inactive; CYP1A2 IC50 (half-maximal inhibitory concentration) ([4]; qHTS): Inactive |
| Cc1cc([N+](=O)[O-])c(O)c([N+](=O)[O-])c1 |  |  |  |  |  |  |  |  |  |  |  | 35 µM | Inconclusive inhibitor | 28.4 µM | CYP2C19 AC50 (half-maximal activity concentration) [3, 7]: Inactive; CYP1A2 AC50 (half-maximal activity concentration) [4, 7]: Inconclusive inhibitor |
